From ChEMBL document CHEMBL3886962, “Spirocyclic sulfones as gamma secretase inhibitors” (2016)

Sequences of proteins named here, by UniProt entry; tags and fusion partners are left off. Residues count along the entry.
UniProt P05067, 18-770 limits assumed: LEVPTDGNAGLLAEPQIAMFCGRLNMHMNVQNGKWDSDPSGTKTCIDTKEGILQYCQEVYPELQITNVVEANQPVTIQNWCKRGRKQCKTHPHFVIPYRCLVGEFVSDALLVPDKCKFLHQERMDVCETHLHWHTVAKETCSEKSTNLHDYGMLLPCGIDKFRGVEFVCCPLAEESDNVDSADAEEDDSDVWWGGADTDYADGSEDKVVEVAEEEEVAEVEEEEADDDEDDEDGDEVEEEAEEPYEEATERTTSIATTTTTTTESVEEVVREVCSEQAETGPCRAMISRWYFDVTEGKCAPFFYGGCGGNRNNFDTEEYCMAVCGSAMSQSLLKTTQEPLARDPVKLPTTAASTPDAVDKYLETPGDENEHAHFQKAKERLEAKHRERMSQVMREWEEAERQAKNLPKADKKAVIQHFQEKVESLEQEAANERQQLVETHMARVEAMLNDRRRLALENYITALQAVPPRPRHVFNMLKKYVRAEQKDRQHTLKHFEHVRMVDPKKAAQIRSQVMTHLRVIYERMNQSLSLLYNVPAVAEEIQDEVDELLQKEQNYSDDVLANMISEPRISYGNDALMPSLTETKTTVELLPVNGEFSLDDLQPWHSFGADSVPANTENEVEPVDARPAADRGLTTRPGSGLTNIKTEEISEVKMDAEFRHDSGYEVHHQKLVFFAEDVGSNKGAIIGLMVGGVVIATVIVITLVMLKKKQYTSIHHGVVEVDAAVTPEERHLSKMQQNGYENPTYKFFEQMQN

Target: Amyloid-beta precursor protein (Homo sapiens, UniProt P05067)
Test: Electrochemiluminescence (ECL)-Based Immunoassay: To measure γ-secretase activity, membranes were incubated at 37° C. for 1 h in 50 μL of buffer containing 20 mM Hepes (pH 7.0) and 2 mM EDTA. At the end of the incubation, Aβ 40 and Aβ 42 were measured using an electrochemiluminescence (ECL)-based immunoassay. Aβ 40 was identified with antibody pairs TAG-G2-10 and biotin-W02, while Aβ 42 was identi

SMILES: O=S(=O)(c1ccc(Cl)cc1)[C@@]12CCCC3(COC3)[C@@H]1COc1c(F)ccc(F)c12
- IC50: 10.1 nM
